Earlier results on one molecule are cited in patent US9655905B2, “Treatment of sickle cell disease” (KING ABDULLAH UNIVERSITY OF SCIENCE AND TECHNOLOGY, priority 2011, dated 2017).

The conditions of the series: rat, in vivo.

Regarding `O=S(=O)(c1cccc2c(O)nccc12)N1CCCNCC1` [Hydroxyfasudil, 5-(1,4-diazepane-1-sulfonyl)isoquinolin-1-ol], the “pulmonary hypertension secondary to left ventricular dysfunction” value is given as “attenuate”.
